This test has as its target T1, c-Cbl (RING) protein (Homo sapiens, UniProt P22681).
T1 construct: c-Cbl (RING) protein including the linker and RING domain (codon 358–457) was tagged with glutathione S-transferase (GST); GST; made in house
T1 sequence (P22681 358-457): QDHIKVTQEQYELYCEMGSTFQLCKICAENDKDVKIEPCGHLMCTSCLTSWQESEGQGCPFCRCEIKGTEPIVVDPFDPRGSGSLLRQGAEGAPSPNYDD
Put plainly: Competitive FP assay/screen: displacement of probe 1 from c-Cbl (RING) protein. It counts as binding. As for the experimental part: Assays were carried out in detergent-free buffer system (PBS, pH = 7.4) or detergent-present buffer system (0.01% Triton X-100 in PBS, pH = 7.4). All FP measurements were made on 384-well, low-volume, black, v-bottom polystyrene microplates (Corning, Shanghai, China) using the ZS-2 plate reader. The binding affinities of fluorescein-labeled peptides/regulators binding to c-Cbl (RING) protein were verified by titrating an increasing concentration of protein into a constant concentration of labeled peptides. The polarization values were measured at an excitation wavelength of 485 nm and an emission wavelength of 538 nm. The total fluorescence (TF) values were also measured. The change in polarization was graphed as a function of the log of the protein concentration, and the dissociation constant (Kd) and the change in mP (ΔmP) were obtained from the resulting sigmoidal curve. The concentrations of fluorescein-labeled peptide and proteins were optimized.
Unlabeled short peptide was titrated against the FITC-labeled peptide (100 nmol/L) and protein (3 µmol/L) mixture. Plates were incubated at room temperature for up to 3 hours or 30 min at different temperatures. FP values were taken and IC50 values, concentrations giving 50% inhibition of protein-protein interaction with respect to control, and dissociation constant (Kd) values were calculated.
Master mixtures containing fluorescein-labeled probe and Cbl (RING) protein Cbl (RING) protein, 3 µmol/L and probe 1 at 100 nmol/L) in a reaction volume of 19 µl were prepared and loaded to plates. The library compounds (10 µmol/L – 0.078 µmol/L, half dilutions) were prepared separately and transferred into the assay plates. The first and last columns of each plate were used as positive and negative control wells. Wells containing the drug only were used as controls to detect auto-fluorescence of the compounds in the total fluorescence assay. After subtraction of the background signal, data was processed and the IC50 values were determined by non-linear least square fitting (four parameters) using SigmaPlot 11.0.
Hits were validated using the primary screening assay conditions in triplicate.

The mark [1] stands for this setting: IC50 Primary screen DF, primary screen, detergent-free system, 10 to 0.078 µmol/L, 5% DMSO.
Where [2] appears, read: IC50 Primary screen DP, primary screen, detergent-present system (0.01% Triton X-100), 10 to 0.078 µmol/L, 5% DMSO.
Setting [3] is: IC50 Validated DF, validated in triplicate, detergent-free system.

SMILES strings stand for the structures. “And” between values parts separate entries of the source, which are not always exact repeats. Identical values can stand only once. Like-named read-outs stand apart in the source and are kept apart here.

Broadly, the IC50 is the midpoint of a concentration-inhibition curve. As to `O=c1c(O)c(-c2ccc(O)c(O)c2)oc2cc(O)cc(O)c12` [Quercetin], the IC50 under setting [1] was < 5 µM and 4.2 µM; the IC50 under setting [2] is > 10 µM; the IC50 under setting [3] came to 4 ± 0.6 µM; the IC50 (read-out: IC50 Validated DP, validated in triplicate, detergent-present system (0.01% Triton X-100), NR: no dose response) is > 10 µM.

For the molecule `OC[C@H]1O[C@@H](O[C@@H]2OC=C[C@H]3[C@H](O)[C@@H]4O[C@]4(CO)[C@@H]23)[C@H](O)[C@@H](O)[C@@H]1O` [Catalpol], the IC50 was < 5 µM and 2.9 µM under setting [1]; 2.3 µM under setting [2]; 2.7 ± 0.6 µM under setting [3]; 3.2 ± 0.9 µM (IC50 Validated DP, validated in triplicate, detergent-present system (0.01% Triton X-100), NR: no dose response).
